The target in assay [1] is collagen (acid soluble, bovine type I) (bovine) (UniProt P02453). In words: retention of added type I collagen in the photopolymerized hydrogel after one week in PBS; hydroxyproline assay; no increase at 0.5 mg/mL.
In assay [2] the target is collagen secreted by encapsulated chondrocytes (mostly type II collagen) (calves (chondrocytes isolated from 5- to 8-week-old calves)) (UniProt P02459). In words: cell-based or functional assay.
In assay [3] the target is collagen (acid soluble, bovine type I) (bovine) (UniProt P02453). In words: TEM of reconstituted type I collagen fibers incubated with NP-3 at 25 °C.

As for “CMP/PEODA hydrogel: ACRL-PEG-(Pro-Hyp-Gly)7-Tyr photopolymerized with poly(ethylene oxide) diacrylate”, in assay [1], the collagen concentration at which retention reached saturation was 0.2 mg/mL. In assay [2], the collagen content of the hydrogel after one week of chondrocyte culture, 2% CMP/PEODA against 1% CMP/PEODA was determined as 37% and the ratio of collagen content, PEODA gel to 2% CMP/PEODA gel is 2 fold (1:2).

For “NP-3: gold nanoparticle functionalized with Cys-(Pro-Hyp-Gly)7”, in assay [3], the NP-3 particles per unit area, gap regions (dark bands) relative to overlap regions (light bands) was 2 fold.

The values above are taken from patent publication US8883964B2, “Compositions comprising modified collagen and uses therefor” (The Johns Hopkins University, priority 2004, dated 2014).
